# Ab-14 heavy chain CDR variants: yeast mating affinities

Data: MIT Lincoln Laboratory AlphaSeq set, Li et al. 2023, doi:10.1038/s41467-023-39022-2, as distributed in FLAb.

Target: peptide PDVDLGDISGINAS, taken from heptad repeat 2 (HR2) of SARS-CoV-2 spike.

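The starting antibody came from a phage panning campaign against this peptide. This is the validation round: designs drawn from the data on random variants, tested in the same kind of assay. Their group label is 14H_GP_HC (GP: Gaussian process model; HC: hill climbing; a sequence that several methods proposed may carry one label only). The assay is AlphaSeq: two haploid yeast populations carry antibody and antigen on their surface. After mating in shaken culture at 30 °C for 16 h, diploids were selected and their barcode pairs sequenced. Each replicate has its own calibration line, from reference interactions of the BCL2 family. The assay was run in six technical replicates.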

Each scFv is VH, three GGGGS repeats, VL, as in the parent Ab-14, and differs from it in the CDRs of the heavy chain only.
VH: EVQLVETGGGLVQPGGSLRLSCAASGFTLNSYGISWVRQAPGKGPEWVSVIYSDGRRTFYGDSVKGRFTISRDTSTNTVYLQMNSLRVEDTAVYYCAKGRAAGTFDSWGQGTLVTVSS
VL: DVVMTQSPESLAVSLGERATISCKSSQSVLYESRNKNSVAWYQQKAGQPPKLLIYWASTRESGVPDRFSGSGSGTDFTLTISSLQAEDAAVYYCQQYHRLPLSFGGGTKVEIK

Substitutions are numbered in sequence along the VH above, starting at 1 (not Kabat).
Values are log10 of the apparent Kd in nM; lower means stronger binding.
An entry "nd" has no value in the source: the pair was not observed among the diploids in that replicate. This suggests poor binding but is not conclusive.

The variant T28D G61I S107M gave 0.90, 0.87, 0.69, 0.41, 0.68, 0.64 (controls 0 of 18).
The variant N30D G61D R100Y A101V gave nd, nd, nd, nd, nd, nd (controls 0 of 18).
The variant G26K S31E G61I A101C gave nd, nd, nd, nd, nd, nd (controls 0 of 18).
The variant S31Q G61S G103V gave nd, nd, nd, nd, nd, nd (controls 0 of 18).
The variant T28F S31D G61K R100T gave 2.69, 1.43, 2.13, 1.91, 1.15, nd (controls 0 of 18).
The variant G61S R100H A101V gave 1.08, 0.70, 0.47, -0.26, 0.15, 0.07 (controls 0 of 18).
The variant S53A D106W S107K gave nd, nd, nd, nd, nd, nd (controls 0 of 18).
The variant N30K S31E G103V S107M gave nd, nd, nd, nd, nd, nd (controls 1 of 18).
The variant S31E G61T A101T D106I gave 2.18, nd, nd, nd, 2.50, nd (controls 0 of 18).
The variant G61S A101E D106S gave 0.58, 0.35, 0.14, 0.12, 0.44, 0.26 (controls 0 of 18).
The variant S31E G61S S63A A101I gave 0.00, -0.25, -0.24, -0.31, -0.06, -0.31 (controls 1 of 18).
The variant T28P G61D R100Q A101E gave 2.18, 0.01, 0.83, 0.80, 0.98, 1.43 (controls 0 of 18).
The variant G26S S31E G103V S107Q gave 0.89, 1.17, 1.34, 0.78, 1.30, 1.31 (controls 1 of 18).
The variant S31Q G61S R100Q A101T gave 0.06, -0.36, -0.35, -0.40, -0.35, -0.14 (controls 0 of 18).
The variant R56M G61S R100W A101T gave 1.34, nd, nd, nd, 2.28, 1.99 (controls 1 of 18).
The variant G26E N30E S53A D106K gave nd, nd, 0.01, 0.11, 1.84, nd (controls 0 of 18).
The variant T28E S31D G61I S63T R100N gave nd, nd, nd, nd, nd, nd (controls 0 of 18).
The variant T28W S31D S53A gave 0.66, 0.14, 0.32, 0.72, 0.78, 0.59 (controls 0 of 18).
The variant N30D D106R S107V gave nd, nd, nd, nd, nd, nd (controls 0 of 18).
The variant T28H S31D G61V A101L gave nd, 0.98, 0.65, 1.72, nd, nd (controls 0 of 18).
The variant S31E R100H S107M gave 0.81, 0.86, 0.54, 0.18, 0.74, 1.21 (controls 0 of 18).
The variant S31E S63K G103V S107Q gave nd, nd, nd, nd, nd, nd (controls 0 of 18).
The variant T28Y S31D F59Y gave 0.39, -0.09, nd, nd, nd, nd (controls 0 of 18).
The variant S31D S53A R100T gave nd, nd, nd, nd, nd, nd (controls 0 of 18).
The variant S53A A101S D106K S107I gave -0.30, -0.25, -0.60, 0.45, -0.65, 0.20 (controls 0 of 18).
The variant N30E S31K S53A D106I gave nd, nd, nd, 1.87, nd, nd (controls 0 of 18).
The variant T28D S31E R100K S107Q gave 0.66, 1.45, 1.57, 1.18, 1.20, 1.79 (controls 0 of 18).
The variant T28N G61T R100M A101F gave 1.99, 1.87, 1.82, 2.17, 2.38, 1.86 (controls 0 of 18).
The variant T28W S31D G61A S107V gave 1.70, 1.04, 1.37, 1.67, 1.04, 1.83 (controls 0 of 18).
The variant T28E S31E F59E G61I gave 0.70, 0.68, 0.03, -0.27, 0.79, 0.78 (controls 0 of 18).
The variant G61D R100K A101L S107D gave nd, 1.76, 2.51, nd, nd, 1.05 (controls 0 of 18).
The variant G26L S31D G61R A101T gave nd, 1.84, nd, nd, nd, nd (controls 0 of 18).
The variant S31Q G61S A101L S107T gave 0.16, -0.55, -0.54, -0.60, 0.20, 0.16 (controls 0 of 18).
The variant T28S S31E G61C R100F S107R gave nd, nd, nd, nd, nd, 1.50 (controls 0 of 18).
The variant S31E G61S R100Q A101E gave 0.11, 0.70, 0.07, 0.31, 0.70, 0.29 (controls 1 of 18).
The variant T28W S53A R100S gave nd, -0.36, nd, -0.10, 1.32, nd (controls 0 of 18).

3 of these entries, quoted again:

| changes | log10 Kd, replicates | empty controls |
|---|---|---|
| T28E S31E F59E G61I | 0.70, 0.68, 0.03, -0.27, 0.79, 0.78 | 0/18 |
| T28F S31D G61K R100T | 2.69, 1.43, 2.13, 1.91, 1.15, nd | 0/18 |
| S53A D106W S107K | nd, nd, nd, nd, nd, nd | 0/18 |

In the paper, a design with two or fewer of six values counts as a poor binder.
Values of this round are not directly comparable with the first-round values of the same sequences.
Of ten entries with the parent sequence, four were seen in most replicates (averages 0.34 to 2.37), three in one and three in none, so single entries are noisy.
Nonspecific signal, from three strains lacking the peptide, appeared in 1% of pairings of all heavy chain designs, centred on 2.08 (5% of these signals below 0.84); values are not corrected for it. For each scFv, signals with the empty controls are counted beside the result.